The target of the experiment is human liver FBPase (Homo sapiens, UniProt P09467). The experiment can be described thus: Inhibition of Human Liver FBPase. Conditions: read-out: Human Liver FBPase IC50; recombinant hlFBPase, 0.150 mM fructose-1,6-bisphosphate, pH 7.4, 37° C.

By UniProt entry, the sequences of proteins in these tests, tags left out. Residues count along the entry.
UniProt P09467, 2-338 limits assumed: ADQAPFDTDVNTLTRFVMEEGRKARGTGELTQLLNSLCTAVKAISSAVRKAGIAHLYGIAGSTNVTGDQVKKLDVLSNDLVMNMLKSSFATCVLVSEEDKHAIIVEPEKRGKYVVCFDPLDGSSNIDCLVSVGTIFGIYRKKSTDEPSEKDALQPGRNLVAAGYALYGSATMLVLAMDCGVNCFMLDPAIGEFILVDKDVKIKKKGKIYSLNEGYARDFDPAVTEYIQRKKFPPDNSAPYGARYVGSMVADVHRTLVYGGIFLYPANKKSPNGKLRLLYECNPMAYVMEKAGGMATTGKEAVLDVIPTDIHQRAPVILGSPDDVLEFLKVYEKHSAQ

The source of these data is patent US7371739B2, “Aryl fructose-1,6-bisphosphatase inhibitors” (Metabasis Therapeutics, Inc., priority 2000, dated 2008).

What is called IC50 is the concentration that inhibits the measured activity by half.

As for `COC(=O)c1cc(N)cc(-c2ccc(P(=O)(O)O)o2)c1`, the IC50 is 2600 nM.
